Laboratory results published in paper PMC8286840, “Identifying SARS-CoV-2 antiviral compounds by screening for small molecule inhibitors of Nsp3 papain-like protease” (Biochemical Journal, 2021).
Structures can show the parent of a compound that is named as a salt. Where two headings read alike, the source gives them in different places.

Experiments:
[1] = target: T1, SARS-CoV-2 PLpro (nsp3 1564–1878) (Severe acute respiratory syndrome coronavirus 2, UniProt P0DTD1); assay: biochemical
[2] = target: T1, SARS-CoV-2 PLpro (nsp3 1564–1878); assay: biochemical; remark: listed apart in the source
[3] = read-out: % of control remaining

CC(C)NCC(O)COc1cccc2ccccc12 (racemic)
remaining activity at 1.25 µM ([1]; read-out: % of control remaining, Well no.=854, low concentration screen): 98.8%

CC(C)NC[C@H](O)COc1cccc2ccccc12 [(S)-Propranolol hydrochloride]
remaining activity at 1.25 µM ([1]; read-out: % of control remaining, Well no.=1447, low concentration screen): 98.4%

CN(C)CCCN1c2ccccc2CCc2ccc(Cl)cc21 [Clomipramine (hydrochloride)]
remaining activity at 3.75 µM ([2]; read-out: % of control remaining, Well no.=6190, high concentration screen): 104%

CN(C)CCOC(c1ccccc1)c1ccccc1 [Diphenhydramine (hydrochloride)]
remaining activity at 1.25 µM ([1]; read-out: % of control remaining, Well no.=7573, low concentration screen): 99.4%

CN(C)CCOC(c1ccccc1)c1ccccc1 [Diphenhydramine hydrochloride]
remaining activity at 3.75 µM ([2]; read-out: % of control remaining, Well no.=639, high concentration screen): 102%
remaining activity at 1.25 µM ([1]; read-out: % of control remaining, Well no.=639, low concentration screen): 102%

CN(C)CCOC(c1ccccc1)c1ccccc1 [Diphenhydramine.HCl]
remaining activity at 3.75 µM ([2]; read-out: % of control remaining, Well no.=1638, high concentration screen): 107%

OCCN1CCN(CCCN2c3ccccc3Sc3ccc(C(F)(F)F)cc32)CC1 [Fluphenazine (dihydrochloride)]
remaining activity at 1.25 µM ([1]; read-out: % of control remaining, Well no.=7659, low concentration screen): 94.9%

CN1CCN(CC(=O)N2c3ccccc3C(=O)Nc3cccnc32)CC1 [Pirenzepine (dihydrochloride)]
remaining activity at 3.75 µM ([2]; read-out: % of control remaining, Well no.=7324, high concentration screen): 91.8%
remaining activity at 1.25 µM ([1]; read-out: % of control remaining, Well no.=7324, low concentration screen): 92.6%

CN1CCN(CC(=O)N2c3ccccc3C(=O)Nc3cccnc32)CC1 [Pirenzepine dihydrochloride]
remaining activity at 3.75 µM ([2]; read-out: % of control remaining, Well no.=1157, high concentration screen): 105%
remaining activity at 1.25 µM ([1]; read-out: % of control remaining, Well no.=1157, low concentration screen): 107%

CC(C)NCC(O)COc1cccc2ccccc12 (centres unmarked) [Propranolol (hydrochloride)]
remaining activity at 3.75 µM ([2]; read-out: % of control remaining, Well no.=6618, high concentration screen): 96.4%
remaining activity at 1.25 µM ([1]; read-out: % of control remaining, Well no.=6618, low concentration screen): 96.7%

CC(C)NCC(O)COc1cccc2ccccc12 (centres unmarked) [Propranolol HCl]
remaining activity at 3.75 µM ([2]; read-out: % of control remaining, Well no.=4734, high concentration screen): 107%
remaining activity at 1.25 µM ([1]; read-out: % of control remaining, Well no.=4734, low concentration screen): 112%

CC(C)NCC(O)COc1cccc2ccccc12 (centres unmarked) [Propranolol]
remaining activity at 3.75 µM ([2]; read-out: % of control remaining, Well no.=2205, high concentration screen): 93.8%
remaining activity at 1.25 µM ([1]; read-out: % of control remaining, Well no.=2205, low concentration screen): 92.2%

COc1cc(/C=C/C(=O)NCCn2c(C(F)(F)F)cc3ccccc32)cc(OC)c1OC [TG6-10-1]
remaining activity at 3.75 µM [2, 3]: 85.9%
remaining activity at 1.25 µM [1, 3]: 92.3%
